# In patent publication US9120812B2, “Pyrimidooxazocine derivatives as mTOR-inhibitors” (SANOFI, priority 2012, dated 2015):
# Amino acid sequences for entries named in this document (tags omitted).
# UniProt P42336, whole entry: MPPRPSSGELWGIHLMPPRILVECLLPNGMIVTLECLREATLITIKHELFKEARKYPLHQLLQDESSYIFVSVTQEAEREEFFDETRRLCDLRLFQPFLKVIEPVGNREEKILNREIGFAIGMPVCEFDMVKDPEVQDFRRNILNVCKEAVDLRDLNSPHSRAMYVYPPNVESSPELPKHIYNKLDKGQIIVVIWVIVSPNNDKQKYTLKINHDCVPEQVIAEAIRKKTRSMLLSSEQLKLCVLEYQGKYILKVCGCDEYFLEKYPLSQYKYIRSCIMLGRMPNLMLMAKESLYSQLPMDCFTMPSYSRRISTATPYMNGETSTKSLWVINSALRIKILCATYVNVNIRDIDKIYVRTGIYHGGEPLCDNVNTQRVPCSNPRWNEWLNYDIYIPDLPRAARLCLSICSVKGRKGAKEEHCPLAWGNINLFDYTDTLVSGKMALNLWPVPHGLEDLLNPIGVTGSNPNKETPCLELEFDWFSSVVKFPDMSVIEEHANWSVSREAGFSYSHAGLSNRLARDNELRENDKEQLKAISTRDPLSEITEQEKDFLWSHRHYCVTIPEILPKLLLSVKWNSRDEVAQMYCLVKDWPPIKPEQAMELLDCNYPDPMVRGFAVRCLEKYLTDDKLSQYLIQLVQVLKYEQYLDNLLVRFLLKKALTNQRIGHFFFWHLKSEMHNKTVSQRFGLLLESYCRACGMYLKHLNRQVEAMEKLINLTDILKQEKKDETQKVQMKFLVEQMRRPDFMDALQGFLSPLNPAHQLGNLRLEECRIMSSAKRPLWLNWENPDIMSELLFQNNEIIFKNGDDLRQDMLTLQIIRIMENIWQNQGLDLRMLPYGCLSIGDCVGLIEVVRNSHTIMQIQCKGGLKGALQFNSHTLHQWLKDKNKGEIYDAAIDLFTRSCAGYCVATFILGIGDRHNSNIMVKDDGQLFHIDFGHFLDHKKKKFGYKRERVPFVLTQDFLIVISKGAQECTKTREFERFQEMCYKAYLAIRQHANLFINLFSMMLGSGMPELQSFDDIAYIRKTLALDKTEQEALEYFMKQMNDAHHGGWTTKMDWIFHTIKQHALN
# How the values were obtained:
# [1] = target: mTOR (human recombinant aa mTOR 1360-2549) (Homo sapiens (Human), UniProt P42345); assay: mTOR enzymatic test by TR-FRET (phosphorylation of GFP-4EBP1); conditions: read-out: mTOR IC50
# PI3Kα (p110α/p85α) = PI3Kα (p110α/p85α) (Homo sapiens (Human), UniProt P42336); assay: PI3Kα enzymatic test by measuring the consumption of ATP
# U87MG tumour cells = assay: Test of in vitro proliferation of U87MG tumour cells; format: cell-based; conditions: read-out: U87 Cell Proliferation IC50, 72 hours
# Description: Model 4: Test of in vitro Proliferation of U87MG Tumour Cells.
# The cell growth is determined with the reagent CellTiter 96 AQueous One Solution Cell Proliferation Assay from Promega (Cat. No. G3581).
# A reading at T=0 (before the 72 hours of incubation) is taken, corresponding to 100% inhibition.
# Akt-pS473 in U87MG cells = conditions: read-out: U87 Akt-pS473 % Inhibition or IC50, nM (IC50)
smiles,measurement,setting,value
CN1CC(C)(C)Oc2nc(N3CC4CCC(C3)O4)nc(-c3ccc(NC(=O)Nc4ccc(N5CC6CCC(C5)O6)nc4)c(F)c3)c2C1=O,IC50,[1],60 nM
same,PI3Ka IC50,PI3Kα (p110α/p85α),>10000 nM
same,IC50,U87MG tumour cells,77 nM
same,IC50,Akt-pS473 in U87MG cells,29 nM
